Reference: patent US20250381194A1, “METHODS FOR MITIGATING THE EFFECTS OF LOW-LEVEL BLASTS THROUGH PHOSPHODIESTERASE-5 INHIBITION” (University of Kentucky Research Foundation, priority 2024, published 2025)
Entries after “also recorded” stand apart in the source; their conditions may differ.

Key:
[1] = system: IBA1; assay: IBA1 brain tissue immunostaining with HALO analysis, chronic delayed sildenafil study; format: in vivo, Sprague Dawley rats; details: 20 mg/kg oral gavage daily from 2 months to 5 months post-blast injury, rmbTBI
Description: Animal Procedure. 8-12 week old male Sprague Dawley rats (purchased from Charles River) randomly assigned into experimental groups: 1) Sham group without blast treatment, total n=12 rats (n=6 received 20 mg/kg sildenafil and n=6 received vehicle via oral gavage daily from 2 months to 5 months post-blast injury); 2) rmbTBI-Vehicle group, total n=11 rats (vehicle via oral gavage daily from 2 months to 5 months post-blast injury); 3) rmbTBI-Sildenafil group, total n=12 rats (20 mg/kg sildenafil via oral gavage daily from 2 months to 5 months post-blast injury). MRI (magnetic resonance imaging) was performed at 1.5 and 4.5 months post-blast. Fear conditioning test was performed at 5 months post-blast. At the end of the experiment, rats were euthanized and the brain tissue was collected after transcardial perfusion with PBS (FIG. 24). One hemisphere of the brain was snap frozen with liquid nitrogen for brain capillary isolation while another hemisphere of the brain was fixed with 4% paraformaldehyde (PFA). After 48 hours of fixation, the brain tissue was placed into PBS containing 30% sucrose for 72 hours. The sucrose saturated brain tissue was flash frozen in-25 to -35° C. isopentane and stored at -20° C. or proceeded to sectioning. Brain tissue Immunostaining. The PFA fixed and processed half rat brain tissue from all groups was sliced into 40-micron thickness. […]

[2] = system: cyclic guanosine monophosphate (cGMP) in capillaries isolated from rat cortex; assay: cGMP ELISA on media of isolated brain capillaries; format: cell-based; details: sildenafil 100 nM, 1 μM or 10 μM, incubated two hours; vs control capillaries
Description: cGMP Concentration. The effect of sildenafil treatment on cyclic guanosine monophosphate (cGMP) following rmbTBI was assessed by comparison of isolated control capillaries and isolated sildenafil-treated capillaries (100 nM, 1 μM, or 10 μM) obtained from rat cortex. Capillaries were isolated from rat cortex and incubated for two hours and then media was collected and tested using cGMP ELISA kit.

[3] = system: capillaries isolated from the cortex; assay: Capillary respirometry profiling (Seahorse mitochondrial stress test) of isolated brain capillaries after mbTBI; format: cell-based, Sprague Dawley rats
Description: Blast Exposure. The MBD consists of a cylindrical steel tube, 12-inch internal diameter, separated into a 19-ft. expansion chamber and a 2.5-ft compression chamber. For these studies, compressed helium-driven mode was used to replicate military blast exposure. A 10-mil-thick (0.254 mm) biaxially-oriented polyethylene terephthalate (Mylar) membrane separates the two chambers. The Mylar membrane was actively ruptured by a 4-point blade affixed to a pneumatic cylinder to achieve desired static overpressure. The shock wave was recorded by face-on, reflected pressure (Kulite pitot-static pressure probe) and wall-mounted side-on static pressure sensors (Kulite). Data from each piezoresistive sensor was routed through sensor cables before being captured by the state-of-the-art TMX-18 (AstroNova™ Test & Measurement, 800 kHz sampling rate) and analyzed using AstroView. The rat subjects were secured in plastic netting to minimize but allow free body motion without neck flexion. The rat subjects were positioned 30 inches inside the tube and with lateral head exposure. An overpressure of 11 PSI was utilized, which is in the range where neurological disruption has been observed in operations involving breaching activity. In the studies underlying this example, Sprague Dawley rats were subjected to single blast exposure. Capillary Isolation. Brain capillaries were isolated as previously described. Animals were euthanized by CO2 inhalation and decapitated, brains were removed, dissected, and homogenized in cold PBS buffer (2.7 mM KCl, 1.46 mM KH2PO4, 136.9 mM NaCl, 8.1 mM Na2HPO4, 5 mM D-glucose, 1 mM sodium pyruvate, pH 7.4). Ficoll® was added to the brain homogenate to a final concentration of 15% and the Ficoll®/brain mixture was centrifuged at 5,800 g for 20 min at 4° C. After resuspending the pellet in 1% BSA/PBS, the capillary suspension was passed over a 30 μm filter to purify capillaries from debris and blood cells. Capillaries were washed and used for experiments. Capillary Respirometry Profiling. Vessel respiration was conducted according to our preliminary study and Sure, et al. (2018). Using a Seahorse XFe96 Flux Analyzer (Agilent Technologies, Palo Alto, CA, USA), the mitochondrial stress test was performed according to the manufacturer's instructions. Briefly, capillaries from each group were centrifuged, and the pellet was resuspended in XF assay medium with substrates (10 mM glucose, 1 mM pyruvate, and 2 mM L-glutamine). […] After three measurements of baseline OCR (basal respiration), respiratory chain inhibitors/uncouplers were sequentially injected into each well (1 μM Oligomycin, 4 μM FCCP, 0.5 μM Rotenone/Antimycin A, and 5 mM 2-deoxyglucose (2DG)), and OCR was measured three times after each injection. Maximal respiration was calculated on OCR data recorded after FCCP addition and basal glycolysis was calculated on Extracellular Acidification Rate (ECAR) data recorded after 2-DG addition. At the end of the experiment, the XF microplate was centrifuged at 1000 g for 10 min, after removing the media, 10 μl RIPA buffer was added to the capillaries in each well, and freeze-thaw cycles were performed 3 times in dry ice before protein was quantified using a BCA kit (23225; Thermo Scientific). Using Wave software version 2.6.1 (Agilent Technologies, Santa Clara, CA, USA), OCR from various respiration states was calculated and normalized to protein concentration Respiration in Capillaries Following mbTBI. […]

[4] = system: cognitive performance following rmbTBI; assay: Novel object recognition task after rmbTBI; format: in vivo, Sprague Dawley rats; details: 5 mg/kg low dose daily, three days post-rmbTBI; compared to chance (0.5)
Description: Blast Exposure. The MBD consists of a cylindrical steel tube, 12-inch internal diameter, separated into a 19-ft. expansion chamber and a 2.5-ft compression chamber. For these studies, compressed helium-driven mode was used to replicate military blast exposure. A 10-mil-thick (0.254 mm) biaxially-oriented polyethylene terephthalate (Mylar) membrane separates the two chambers. The Mylar membrane was actively ruptured by a 4-point blade affixed to a pneumatic cylinder to achieve desired static overpressure. The shock wave was recorded by face-on, reflected pressure (Kulite pitot-static pressure probe) and wall-mounted side-on static pressure sensors (Kulite). Data from each piezoresistive sensor was routed through sensor cables before being captured by the state-of-the-art TMX-18 (AstroNova™ Test & Measurement, 800 kHz sampling rate) and analyzed using AstroView. The rat subjects were secured in plastic netting to minimize but allow free body motion without neck flexion. The rat subjects were positioned 30 inches inside the tube and with lateral head exposure. […] For analysis, a recognition index was calculated for each trial (time spent exploring the familiar object relative to the novel object divided by total time exploring objects during each trial). […] Results were assessed one week after blast exposure.

[5] = system: cortex metabolites (NAD+/NADH metabolism); assay: Cortex metabolomic profile by LC-MS after rmbTBI; format: in vivo, Sprague-Dawley rats; details: 20 mg/kg oral gavage daily for 7 days, vs rmbTBI vehicle
Description: Animal Procedure. Male Sprague-Dawley rats (Charles River Laboratories, Wilmington, MA, USA), aged 8-10 weeks and weighing approximately 250-300 g, randomly assigned into experimental groups (n=5/group), including: (1) Sham group without blast treatment (vehicle via oral gavage daily for 7 days); (2), rmbTBI-Vehicle group (vehicle via oral gavage daily for 7 days, with administration occurring immediately following each respective blast exposure and continuing to day 7); and (3) rmbTBI-Sildenafil group (20 mg/kg sildenafil via oral gavage daily for 7 days, with administration occurring immediately following each respective blast exposure and continuing to day 7). The rmbTBI blast procedure was performed on day 0 and day 1 (24 h interval) (i.e., two blasts total) using a McMillan Blast Device at delivering 11 psi peak static overpressure blast wave. On day 8, the rats were euthanized without the use of isoflurane to preserve endogenous metabolites. The brain was rapidly removed, and the hippocampus and cortex were dissected, snap-frozen in liquid nitrogen, and stored at −80° C. until further analysis. Frozen brain tissues were submitted for liquid chromatography-mass spectrometry (LC-MS) analysis to quantify metabolites and assess biochemical alteration.
Sample Prep for LC-MS. All tissues were handled on liquid nitrogen when removed from cryostorage at −80° C. Brain samples were removed from cryostorage and pulverized to 10 μm particles in liquid N2 using a Freezer/Mill Cryogenic Grinder (model 6875D, SPEX SamplePrep, Metuchen, NJ, USA). Approximately 25 mg of powdered tissue was removed with a micro spatula to a new tube and extracted with 50% MeOH (1% formic acid). Following addition of MeOH, mixtures were placed on ice for 20 min and briefly vortexed at 5 min intervals. Following centrifugation at 24,000×g for 10 min at 4° C. the aqueous phase containing polar metabolites was filtered to remove lipids using Agilent captiva EMR-Lipid filter under positive pressure manifold. The resulting filtrate was fully dried at 10-3 mBar using a SpeedVac (Thermo Fisher Scientific, Waltham, MA, USA) to evaporate remaining MeOH then reconstituted in 5% acetonitrile, normalized to mass of tissue used for extraction.
High-Performance Liquid Chromatograph (HPLC) Parameters. Metabolite separation was achieved using the Agilent 1290 Infinity II Stainless HPLC system equipped with an InfinityLab Poroshell 120 HILIC-Z column. The mobile phase consisted of solvent A (water with 10 mM ammonium acetate and 0.1% medronic acid) and solvent B (acetonitrile with 10 mM ammonium acetate).
MS/MS Parameters. Analysis performed on Agilent 6495C LC/TQ with the following parameters: ion mode set at both positive and negative, gas temperature 200 C, drying gas flow 14 L/min, nebulizer gas at 50 psi, sheath gas temperature at 375 C, sheath gas flow at 12 L/min, capillary voltage set to (+) 3000/(−) 2500 V and nozzle voltage set at 0 V.
Data Analysis. After data acquisition, initial data analysis performed on Agilent MassHunter Quantitative Analysis for peak identification and quantification. Relative abundance of each metabolite was then exported into excel and statistical analysis performed using Metaboanalyst (https://www.metaboanalyst.ca). Graphs were made using GraphPad Prism 9.

[6] = first cohort, mbTBI (single blast 11 PSI) capillaries isolated 1 day post-blast, bathed in sildenafil for two hours, vs control

For `CCCc1nn(C)c2c(=O)[nH]c(-c3cc(S(=O)(=O)N4CCN(C)CC4)ccc3OCC)nc12` [sildenafil], the “IBA1 expression in cortex, hippocampus, amygdala and corpus callosum” value [1] was “inconclusive”, the “cGMP in isolated capillaries” value [2] was “increased” and the “capillary-specific maximal mitochondrial respiration” value ([3]; data combined from both cohorts, mbTBI capillaries, sildenafil two hours) was “restore mbTBI-induced deficits”. The basal glycolysis [3, 6] was “non-significantly increased”, the basal respiration [3, 6] was “non-significantly increased” and the maximal respiration [3, 6] was “non-significantly increased”. The maximal respiration ([3]; second cohort, mbTBI capillaries isolated 1 day post-blast, bathed in sildenafil for two hours) was “normalized”, the “recognition index (RI)” value [4] was “significantly increased” and the “relative abundance of NAD+ in cortex” value [5] was “increase”. The “relative abundance of NADH in cortex” value [5] was “increase”, the “relative abundance of cAMP in cortex” value [5] was “increase” and the “relative abundance of fructose-6-phosphate in cortex” value [5] was “decrease”. The “relative abundance of glucose-6-phosphate in cortex” value [5] was “decrease”, the “relative abundance of guanosine-5-monophosphate (GMP) in cortex” value [5] was “decrease” and the “relative abundance of nicotinamide in cortex” value [5] was “decrease; also recorded: statistically significant reduction”.
